Compound activity (PubChem BioAssay)
Rango dissoc inh = prevents RanGTP from dissociating the Rango-importin beta complex; O95149+P62826; Biochemical FRET Rango-importin beta, RanGTP-induced dissociation; Potency, µM (series often up to 46.1 µM), inactives show at the highest dose activity change, negative = inhibition; 0.071% of 340,000 active; AID 540253; calls by dose curve; note: % of control where 0% means no effect; nearly all actives have a fitted effect of over 45% in size
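Recombinant Rango FRET biosensor (EYFP–snurportin 1 IBB–cerulean CFP10) at 0.1 uM premixed with 0.25 uM importin beta in PBS, 1 mM DTT, 0.02% Tween-20, 0.1% BSA. Compound added 5 min; RanGTP-RCC1 (0.6 uM Ran, 2 mM GTP, 0.2 uM RCC1) then triggers release, read at 45 min.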
ELG1 DNA repair = ELG1-dependent DNA repair inhibition. HEK293T ELG1-luciferase reporter, luminescence, 16 h; DNA damage induced by 5-fluorouridine. Potency, µM (titrated, usually from 46.1 µM), inactives show at the top dose activity change, negative = inhibition, usual class: inhibitors. 2.3% of 330,000 active; note: % is set by controls: 0 for no effect and ±100 for the full control effect; nearly all actives have a fitted effect of over 55% in size
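Luminescence from the luciferase reporter, measured 30 min after ONE-Glo reagent at room temperature, was the read-out. Beforehand, 2,000 cells per well were exposed for 16 hr at 37 °C to 5-fluorouridine together with compound or vehicle.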
Rango-impB inh = inhibitors of Rango-importin beta complex formation | Q14974 | Rango CFP/YFP FRET sensor + importin beta, 45 min | Potency, µM (titrated, usually from 92.2 µM), inactives show at the top dose inhibition of complex formation | 0.031% of 340,000 active; calls by dose curve;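 note: 0% = DMSO wells and 100% = buffer wells lacking importin beta; nearly all actives have a fitted effect of over 15% in size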
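FRET biosensor (snurportin 1 IBB flanked by EYFP and cerulean), 50 nM, with compound 5 min, then 0.125 microM importin beta in PBS, 1 mM DTT, 0.02% Tween-20, 0.1% BSA. CFP/YFP ratio read after 45 min at room temperature; pre-read flags interference.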
PKM2 activator = increases activity of human pyruvate kinase M2; P14618; 0.34% of 260,000 active; purified PKM2, Kinase-Glo ATP luminescence, activation; response scale: 0% is enzyme alone, no compound; AID 1631; Potency, µM (top dose mostly 57.5 µM), for inactives: top-dose activation, actives largely listed as activators; note: % is set by controls: 0 for no effect and ±100 for the full control effect; nearly all actives have a fitted effect of over 55% in size
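hPK-M2, >95% pure; 0.1 mM ADP / 0.5 mM PEP final; imidazole pH7.2 buffer w/ 7 mM MgCl2, 50 mM KCl; 1 h RT; Kinase-Glo lum. Intermediate enzyme activity for dual inhibitor/activator qHTS.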
Tb PGK inh = inhibitors of T. brucei phosphoglycerate kinase | 0.043% of 380,000 active | Potency, µM (series often up to 57.5 µM), for inactives: top-dose activity change, negative = inhibition, usual class: inhibitors | AID 602233 | P07378 | PGK/GAPDH coupled, Kinase-Glo luminescence, 60 min; note: % is set by controls: 0 for no effect and ±100 for the full control effect; nearly all actives have a fitted effect of over 60% in size
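Luminescent ATP detection (Kinase-Glo Plus) follows a 60-minute room-temperature incubation, with wells lacking PGK as controls. Buffer: 100 mM TEA (pH 7.6), 5 mM MgCl2, 0.01% Tween-20. Coupling enzyme GAPDH (100 nM final) supplies unstable 1,3-BPG in-well.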
Tb PFK inh = T. brucei PFK enzyme inhibition; T. brucei PFK, ADP-Glo luminescence; Potency, µM (top dose mostly 57.5 µM), for inactives: at the highest dose activity, negative = inhibition, most hits filed as inhibitors; 0.17% of 330,000 active; AID 485367;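 note: 0% = uninhibited 1x PFK enzyme wells and -100% = no-enzyme wells; nearly all actives have a fitted effect of over 60% in size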
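PFK 1.25 nM, F6P 0.5 mM, ATP 0.1 mM, 0.1 M TEA pH 8.0, 5 mM MgCl2, 0.01% Tween20, 0.1% BSA; 45 min RT. ADP-Glo readout. qHTS titration up to 57 uM; curves fitted, compounds curve-classed.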
* = called active by the depositor; [ ] = remark or other dose. Rows were chosen to be rich in hits. Some 2.4% of all compounds tested hit in one or more screens of this group. Unless noted, calls come from the whole dose curve; as a rule, active = well fitted curve in the direction sought with a large enough effect; inconclusive = small, poorly fitted or top-dose-only effect, or another doubt; inactive = no such curve, though single readings can be large; an effect the other way counts as inactive or inconclusive. Potency is the fitted concentration of half-maximal effect.

`COc1ccc(Nc2nnc(SCC(=O)c3cc(C)n(CC4CCCO4)c3C)s2)cc1` (stereo not drawn) gave Rango dissoc inh -2.7%, ELG1 DNA repair inconclusive, Rango-impB inh 0.1%, PKM2 activator 2.0%, Tb PGK inh -7.5% and Tb PFK inh 1.8%.
Screening COc1ccc(C(=O)O/N=C(\N)Cc2ccc(Cl)c(Cl)c2)cc1OC returned Rango dissoc inh -9.6%, ELG1 DNA repair 18.4µM*, Rango-impB inh 3.8%, PKM2 activator -1.9%, Tb PGK inh inactive and Tb PFK inh inconclusive.
Screening COc1ccc(C(=O)O/N=C(\N)Cc2ccc(Cl)cc2)cc1OC returned Rango dissoc inh 0.3%, ELG1 DNA repair inconclusive, Rango-impB inh 0.2%, PKM2 activator inconclusive, Tb PGK inh 0.0% and Tb PFK inh -1.8%.
O=C1CCN(S(=O)(=O)c2ccccc2)CCN1CCOCc1ccc(Cl)cc1 was read as Rango dissoc inh 7.2%, ELG1 DNA repair -9.6%, Rango-impB inh -0.2%, PKM2 activator inconclusive, Tb PGK inh -12.1% and Tb PFK inh 25.8%.
`C#CCOCCOCCOCCNc1nc(N2CCN(C(=O)[C@H](CCCN=C(N)N)n3cc(C(N)[C@@H](C)CC)nn3)CC2)nc(N2CCN(C(=O)[C@H](CCCCN)n3cc([C@@H](N)[C@H](C)CC)nn3)CC2)n1` (stereo partly drawn) gave Rango dissoc inh 13.9%, ELG1 DNA repair inconclusive, Rango-impB inh 58µM*, Tb PGK inh 7.4% and Tb PFK inh 4.8%.
`C#CCOCCOCCOCCNc1nc(N2CCN(C(=O)CCCCCCCCCCNC(=O)[C@H]([C@@H](C)CC)n3cc(CCCCN=C(N)N)nn3)CC2)nc(N2CCN(C(=O)CCCCCCCCCCNC(=O)[C@H](CCCCN)n3cc(C)nn3)CC2)n1` gave Rango dissoc inh 0.2%, ELG1 DNA repair inconclusive, Rango-impB inh 65.1µM*, Tb PGK inh 16.1% and Tb PFK inh 22.7%.
`CCN(CC)S(=O)(=O)c1cccc(-c2nnc(SCCOc3ccccc3)o2)c1` gave Rango dissoc inh -14.6%, ELG1 DNA repair inconclusive, Rango-impB inh 2.7%, PKM2 activator -2.4%, Tb PGK inh -6.0% and Tb PFK inh -1.8%.
`CCN(CC)S(=O)(=O)c1cccc(-c2nnc(SCCOc3ccc(Cl)cc3)o2)c1` gave Rango dissoc inh -23.2%, ELG1 DNA repair 20.6µM*, Rango-impB inh -2.2%, PKM2 activator -2.8%, Tb PGK inh -2.8% and Tb PFK inh 3.5%.
CCCC[C@]12Cc3cc(C#N)ccc3C(O1)c1c(cc(-c3ccccc3)oc1=O)O2 was read as PKM2 activator -1.6%[11.5 µM] and Tb PFK inh 2.2%[11.5 µM].
For COCCN(Cc1cc2ccc(C)c(C)c2nc1Cl)C(=O)N1CCOCC1 the results were Rango dissoc inh 0.6%, ELG1 DNA repair 3.8%, Rango-impB inh 2.8%, PKM2 activator 0.8%, Tb PGK inh 2.5% and Tb PFK inh 2.6%.
CC(=O)N(Cc1cccs1)Cc1cc2ccc(C)c(C)c2nc1Cl was read as Rango dissoc inh -15.1%, ELG1 DNA repair 11.6µM*, Rango-impB inh -0.1%, PKM2 activator -13.2%, Tb PGK inh -7.1% and Tb PFK inh -5.4%.
`COc1ccc(NC(=O)CCc2nc3ccccc3c(=O)[nH]2)cc1S(=O)(=O)N1CCCCC1` gave Rango dissoc inh -6.4%, ELG1 DNA repair 25.9µM*, Rango-impB inh -1.9%, Tb PGK inh -4.5% and Tb PFK inh -0.1%.
Screening COc1ccc(C)cc1NC(=O)C1CCCN1S(=O)(=O)c1ccccc1F (stereo not drawn) returned Rango dissoc inh -5.8%, ELG1 DNA repair inconclusive, Rango-impB inh -0.9%, Tb PGK inh 7.3% and Tb PFK inh 7.0%.
Screening COc1ccc(CCC(=O)Nc2ccc(Cl)c(S(=O)(=O)N3CCCC3)c2)cc1 returned Rango dissoc inh -0.1%, ELG1 DNA repair 4.61µM*, Rango-impB inh -5.4%, PKM2 activator 2.0%, Tb PGK inh -17.1% and Tb PFK inh 1.0%.
For COc1ccc(NC(=O)c2n[nH]c(=O)c3ccccc23)cc1S(=O)(=O)N1CCCCC1 the results were Rango dissoc inh -1.8%, ELG1 DNA repair 23.1µM*, Rango-impB inh 2.3%, PKM2 activator -11.7%, Tb PGK inh -9.0% and Tb PFK inh 7.8%.

Entries listed so far with two or more sulfur atoms:
`COc1ccc(Nc2nnc(SCC(=O)c3cc(C)n(CC4CCCO4)c3C)s2)cc1` (stereo not drawn) gave Rango dissoc inh -2.7%, ELG1 DNA repair inconclusive, Rango-impB inh 0.1%, PKM2 activator 2.0%, Tb PGK inh -7.5% and Tb PFK inh 1.8%.
`CCN(CC)S(=O)(=O)c1cccc(-c2nnc(SCCOc3ccccc3)o2)c1` gave Rango dissoc inh -14.6%, ELG1 DNA repair inconclusive, Rango-impB inh 2.7%, PKM2 activator -2.4%, Tb PGK inh -6.0% and Tb PFK inh -1.8%.
`CCN(CC)S(=O)(=O)c1cccc(-c2nnc(SCCOc3ccc(Cl)cc3)o2)c1` gave Rango dissoc inh -23.2%, ELG1 DNA repair 20.6µM*, Rango-impB inh -2.2%, PKM2 activator -2.8%, Tb PGK inh -2.8% and Tb PFK inh 3.5%.

Next section:
COc1ccc(NC(=O)[C@@H]2CCCN2S(=O)(=O)c2ccccc2F)cc1S(=O)(=O)N1CCCCC1 was read as Rango dissoc inh -6.4%, ELG1 DNA repair 14.6µM*, Rango-impB inh -0.5%, Tb PGK inh -0.9% and Tb PFK inh -2.0%.
COc1ccc(NC(=O)CCc2ccccc2)cc1S(=O)(=O)N1CCCCC1 was read as Rango dissoc inh -1.3%, ELG1 DNA repair -17.8%, Rango-impB inh -0.2%, Tb PGK inh -7.9% and Tb PFK inh 0.2%.
For COc1ccc(NC(=O)c2ccco2)cc1S(=O)(=O)N1CCCCC1 the results were Rango dissoc inh -6.5%, ELG1 DNA repair 0.3%, Rango-impB inh -0.1%, PKM2 activator -8.8%, Tb PGK inh -2.7% and Tb PFK inh -1.0%.
For Cc1ccc(C(=O)N/C(=C\c2cn(S(=O)(=O)N(C)C)c3ccccc23)C(=O)NCCN2CCOCC2)cc1 the results were Rango dissoc inh -0.4%, ELG1 DNA repair -13.8%, Rango-impB inh -1.7%, PKM2 activator inconclusive, Tb PGK inh inactive and Tb PFK inh 3.8%.
Screening Cc1c(C(=O)OC(C)C)sc(NC(=O)C2c3ccccc3Oc3ccccc32)c1C(=O)OC(C)C returned Tb PGK inh 8.7%.
Screening COc1ccc(NS(=O)(=O)c2cc(NC(=O)Cc3n[nH]c(=O)c4ccccc34)ccc2OC)cc1 returned Rango dissoc inh 2.3%, Rango-impB inh -3.4% and Tb PGK inh -9.4%.
COc1ccccc1NS(=O)(=O)c1cc(NC(=O)Cc2n[nH]c(=O)c3ccccc23)ccc1Cl was read as Rango dissoc inh -4.8%, ELG1 DNA repair 23.1µM*, Rango-impB inh -2.8%, Tb PGK inh 7.2% and Tb PFK inh -3.8%.
For CCCCCC1(C)NC(=S)N(c2ccccc2)N1 (stereo not drawn) the results were Rango dissoc inh 5.1%, ELG1 DNA repair 7.3µM*, Rango-impB inh -0.9%, PKM2 activator 0.0%, Tb PGK inh -4.7% and Tb PFK inh -15.7%.
`CCc1nc(Nc2ccc(OC)c(OC)c2)c2nnn(Cc3ccccc3Cl)c2n1` gave Rango dissoc inh inconclusive, ELG1 DNA repair 13µM*, Rango-impB inh -12.3%, PKM2 activator -2.6%, Tb PGK inh -7.2% and Tb PFK inh 3.9%.
